Data published in PubChem BioAssay AID1671202 (University of Kansas High Throughput Screening Laboratory, 2021).
This is a selection; strong and weak results do not stand in their true shares. The source made the active and inactive calls. Cut-off read from the data, not from the text of the source: active = inhibition above about 50%; inactive = the rest.

Sequences of proteins named here, by UniProt entry; tags and fusion partners are left off.
UniProt P42858, whole entry: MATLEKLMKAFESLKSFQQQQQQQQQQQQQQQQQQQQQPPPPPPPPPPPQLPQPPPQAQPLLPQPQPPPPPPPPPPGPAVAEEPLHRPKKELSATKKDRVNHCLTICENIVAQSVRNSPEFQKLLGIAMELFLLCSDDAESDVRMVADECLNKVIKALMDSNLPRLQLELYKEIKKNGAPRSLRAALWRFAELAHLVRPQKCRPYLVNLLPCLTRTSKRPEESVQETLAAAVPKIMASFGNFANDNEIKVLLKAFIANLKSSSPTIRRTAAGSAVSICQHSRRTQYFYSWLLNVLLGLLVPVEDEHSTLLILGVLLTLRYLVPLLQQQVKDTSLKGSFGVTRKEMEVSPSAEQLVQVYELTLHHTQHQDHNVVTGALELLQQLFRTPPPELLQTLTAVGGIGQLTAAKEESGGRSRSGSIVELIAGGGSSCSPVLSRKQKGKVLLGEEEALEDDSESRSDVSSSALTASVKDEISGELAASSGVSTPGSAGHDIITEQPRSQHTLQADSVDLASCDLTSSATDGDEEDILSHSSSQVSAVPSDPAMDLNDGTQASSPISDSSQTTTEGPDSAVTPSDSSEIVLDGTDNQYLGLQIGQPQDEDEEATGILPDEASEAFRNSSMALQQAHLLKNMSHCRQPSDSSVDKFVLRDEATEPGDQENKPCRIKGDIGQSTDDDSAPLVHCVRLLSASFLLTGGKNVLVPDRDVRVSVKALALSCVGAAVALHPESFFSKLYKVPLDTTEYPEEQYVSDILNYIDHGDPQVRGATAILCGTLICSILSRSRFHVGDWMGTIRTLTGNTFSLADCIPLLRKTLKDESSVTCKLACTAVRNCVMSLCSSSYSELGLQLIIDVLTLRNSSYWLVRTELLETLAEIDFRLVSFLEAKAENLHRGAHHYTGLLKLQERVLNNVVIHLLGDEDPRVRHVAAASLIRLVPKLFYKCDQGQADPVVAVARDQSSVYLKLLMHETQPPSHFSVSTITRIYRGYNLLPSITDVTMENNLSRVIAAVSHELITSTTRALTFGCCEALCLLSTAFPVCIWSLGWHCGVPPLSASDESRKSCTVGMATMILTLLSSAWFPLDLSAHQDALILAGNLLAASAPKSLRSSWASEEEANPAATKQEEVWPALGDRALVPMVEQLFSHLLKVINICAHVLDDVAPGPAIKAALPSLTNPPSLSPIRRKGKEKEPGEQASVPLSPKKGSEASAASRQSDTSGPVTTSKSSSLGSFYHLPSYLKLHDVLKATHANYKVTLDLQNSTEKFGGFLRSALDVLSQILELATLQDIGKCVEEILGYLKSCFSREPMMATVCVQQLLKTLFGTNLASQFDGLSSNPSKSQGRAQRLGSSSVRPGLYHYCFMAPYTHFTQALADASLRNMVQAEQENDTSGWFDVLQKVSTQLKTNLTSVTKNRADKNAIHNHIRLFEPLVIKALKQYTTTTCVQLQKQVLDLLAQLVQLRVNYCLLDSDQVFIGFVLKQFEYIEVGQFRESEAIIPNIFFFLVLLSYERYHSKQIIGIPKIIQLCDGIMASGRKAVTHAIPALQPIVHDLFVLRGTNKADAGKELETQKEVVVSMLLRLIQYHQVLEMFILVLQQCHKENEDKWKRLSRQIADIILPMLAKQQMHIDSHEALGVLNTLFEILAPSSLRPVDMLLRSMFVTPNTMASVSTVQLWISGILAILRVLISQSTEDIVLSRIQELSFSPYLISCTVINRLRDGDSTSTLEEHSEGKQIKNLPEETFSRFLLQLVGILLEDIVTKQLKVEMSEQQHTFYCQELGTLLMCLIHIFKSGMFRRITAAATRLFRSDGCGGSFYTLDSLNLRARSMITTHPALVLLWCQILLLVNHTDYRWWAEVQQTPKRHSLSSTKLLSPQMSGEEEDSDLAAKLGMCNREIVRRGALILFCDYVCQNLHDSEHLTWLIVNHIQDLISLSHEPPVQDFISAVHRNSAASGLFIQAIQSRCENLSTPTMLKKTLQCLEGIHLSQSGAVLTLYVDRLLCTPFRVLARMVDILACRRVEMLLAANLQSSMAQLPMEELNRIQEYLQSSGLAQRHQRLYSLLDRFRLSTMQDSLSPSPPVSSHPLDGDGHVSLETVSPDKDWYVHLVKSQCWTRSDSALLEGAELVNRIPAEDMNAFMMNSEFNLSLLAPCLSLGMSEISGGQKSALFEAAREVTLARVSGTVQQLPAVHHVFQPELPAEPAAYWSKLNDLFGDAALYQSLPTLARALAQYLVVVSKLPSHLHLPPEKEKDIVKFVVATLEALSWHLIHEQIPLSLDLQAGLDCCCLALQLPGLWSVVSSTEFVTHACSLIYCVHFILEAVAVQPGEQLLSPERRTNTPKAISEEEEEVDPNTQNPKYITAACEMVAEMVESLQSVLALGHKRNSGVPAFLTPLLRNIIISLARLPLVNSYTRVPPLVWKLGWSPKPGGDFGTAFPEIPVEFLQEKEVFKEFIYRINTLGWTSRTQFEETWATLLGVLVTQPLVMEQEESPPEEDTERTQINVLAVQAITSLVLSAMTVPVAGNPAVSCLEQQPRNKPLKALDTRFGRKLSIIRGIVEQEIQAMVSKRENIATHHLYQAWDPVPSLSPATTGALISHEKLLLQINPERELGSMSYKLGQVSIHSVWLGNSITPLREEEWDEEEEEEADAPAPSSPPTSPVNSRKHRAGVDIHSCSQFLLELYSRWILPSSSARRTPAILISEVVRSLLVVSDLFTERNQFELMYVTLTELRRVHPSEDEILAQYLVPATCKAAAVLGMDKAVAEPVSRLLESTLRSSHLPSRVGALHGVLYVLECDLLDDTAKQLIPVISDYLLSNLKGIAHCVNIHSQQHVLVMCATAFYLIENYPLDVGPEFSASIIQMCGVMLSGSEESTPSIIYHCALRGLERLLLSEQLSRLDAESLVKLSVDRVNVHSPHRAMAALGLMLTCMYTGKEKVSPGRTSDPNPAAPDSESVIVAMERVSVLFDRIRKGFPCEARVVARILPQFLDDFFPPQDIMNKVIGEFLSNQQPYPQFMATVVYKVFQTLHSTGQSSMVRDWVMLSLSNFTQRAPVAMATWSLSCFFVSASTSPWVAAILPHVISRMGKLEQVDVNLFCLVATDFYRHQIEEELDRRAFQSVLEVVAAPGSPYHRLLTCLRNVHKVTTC

The compounds below were run against Huntingtin (Homo sapiens) (UniProt P42858) (assay: mutant huntingtin-calmodulin interaction inhibitors – biochemical, AlphaScreen, primary screen (AID 1671202;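 for inhibition: 0% = both proteins with DMSO and 100% = one protein alone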)). Conditions: AlphaScreen His-mHTT/GST-CaM binding, luminescence; at 15 µM, active compounds read high.

SMILES | inhibition
O=[N+]([O-])c1cc([N+](=O)[O-])c(/C=N/O)c([N+](=O)[O-])c1 | inactive
O=[N+]([O-])c1cc([N+](=O)[O-])c(C=Nc2ccccc2)c([N+](=O)[O-])c1 | active: 63%
O=[N+]([O-])c1nonc1COc1nonc1[N+](=O)[O-] | inactive: 11%
CC(CNc1c([N+](=O)[O-])cc(F)cc1[N+](=O)[O-])([N+](=O)[O-])[N+](=O)[O-] | inactive: 20%
O=[N+]([O-])c1cc([N+](=O)[O-])c2c(c1)[nH][n+]1c3cc([N+](=O)[O-])cc([N+](=O)[O-])c3nn21 | inactive: 25%
O=[N+]([O-])c1ccc(-n2ncc3c([N+](=O)[O-])cc([N+](=O)[O-])cc32)c([N+](=O)[O-])c1 | inactive: 3%
O=[N+]([O-])c1cc2c(c([N+](=O)[O-])c1[N+](=O)[O-])OCCO2 | active: 86%
O=[N+]([O-])c1cc([N+](=O)[O-])c2c(c1)S(=O)(=O)c1cc([N+](=O)[O-])cc([N+](=O)[O-])c1N2 | inactive: -3%
Nc1nonc1N=NNc1nonc1N | inactive: -2.93%
O=[N+]([O-])[N-]c1nonc1[N-][N+](=O)[O-] | inactive: -6.57%
N1=Nc2nonc2N=Nc2nonc2N=Nc2nonc2N=Nc2nonc21 | active: 63%
CC(CNC(=O)C(C)([N+](=O)[O-])[N+](=O)[O-])([N+](=O)[O-])[N+](=O)[O-] | inactive: -4%
Cc1cc([N+](=O)[O-])c(NCC(C)([N+](=O)[O-])[N+](=O)[O-])c([N+](=O)[O-])c1[N+](=O)[O-] | active: 100%
Nc1nc(N)c([N+](=O)[O-])cc1[N+](=O)[O-] | inactive: -2.68%
O=[N+]([O-])c1cc2c(c([N+](=O)[O-])c1)-c1c(cc([N+](=O)[O-])cc1[N+](=O)[O-])C2=NO | active: 79%
O=[N+]([O-])c1n[nH]c([N+](=O)[O-])c1-c1n[nH]c(-c2c([N+](=O)[O-])n[nH]c2[N+](=O)[O-])c1[N+](=O)[O-] | inactive: -7.18%
Cc1nc([N+](=O)[O-])c([N+](=O)[O-])[nH]1 | inactive: -0.13%
C=CC[C@H]1CC(C(O)(CC=C)CC=C)=C[C@@H](CC=C)N1.O=[N+]([O-])c1cc([N+](=O)[O-])c(O)c([N+](=O)[O-])c1 | inactive: -4.12%
O=[N+]([O-])c1nonc1-c1n[nH]c(-c2nonc2[N+](=O)[O-])n1 | inactive: 15%
CC(CNc1c([N+](=O)[O-])cc([N+](=O)[O-])c(Cl)c1[N+](=O)[O-])([N+](=O)[O-])[N+](=O)[O-] | inactive: 20%
CC(CCNC(=O)NCCC(C)([N+](=O)[O-])[N+](=O)[O-])([N+](=O)[O-])[N+](=O)[O-] | inactive: -5%
O=c1[nH]c2c([N+](=O)[O-])c([N+](=O)[O-])c([N+](=O)[O-])c([N+](=O)[O-])c2[nH]1 | active: 87%
O=[N+]([O-])c1nonc1NCNc1nonc1[N+](=O)[O-] | inactive: -2%
CC(CNc1c([N+](=O)[O-])cc(Cl)cc1[N+](=O)[O-])([N+](=O)[O-])[N+](=O)[O-] | inactive: 38%
